The results in this text go back to ChEMBL document CHEMBL4376866, “Discovery and Structure-Based Optimization of Potent and Selective WD Repeat Domain 5 (WDR5) Inhibitors Containing a Dihydroisoquinolinone Bicyclic Core” (J Med Chem, 2020).

Activity calls are given as the source filed them. The calls are words filed in the database; no cut-off is given here.

Format in all cases: cell-based
Assay [1] has as its target T1, WD repeat-containing protein 5 (Homo sapiens, UniProt P61964). Description: Binding affinity to WDR5 WIN site in human MV4-11 cells assessed as reduction in MYC recruitment RPS24 binding site at 600 nM after 4 hrs by chromatin immunoprecipitation assay.
The target of assay [2] is T1, WD repeat-containing protein 5. As to the kind of experiment: Binding affinity to WDR5 WIN site in human MV4-11 cells assessed as reduction in MYC recruitment to RPL35 binding site at 600 nM after 4 hrs by chromatin immunoprecipitation assay.
Assay [3] has the same target. As to the kind of experiment: Inhibition of WDR5 in human MV4-11 cells assessed as increase in p53 protein expression after 24 to 48 hrs by Western blot analysis. For orientation: A western blot detects proteins with antibodies after separation by electrophoresis.
For assay [4] the target is unchanged. As to the kind of experiment: Binding affinity to WDR5 in human MV4-11 cells assessed as WDR5-RBBP5 protein interaction at 1 uM after 4 hrs by co-immunoprecipitation assay.
Assay [5] has the same target. As to the kind of experiment: Inhibition of WDR5 in human MV4-11 cells assessed as increase in p21 protein expression after 24 to 48 hrs by Western blot analysis.
Assay [6] has the same target. As to the kind of experiment: Binding affinity to WDR5 WIN site in human MV4-11 cells assessed as reduction in MYC recruitment to SNHG15 E-box binding site at 600 nM after 4 hrs by chromatin immunoprecipitation assay.
Assay [7] shares this target. Description: Inhibition of WDR5 binding to RPS24 in human MV4-11 cells assessed as reduction in RPL35 mRNA expression at 300 nM after 3 days by qRT-PCR analysis relative to control.
The target is the same in assay [8]. As to the kind of experiment: Inhibition of WDR5 binding to RPS24 in human MV4-11 cells assessed as reduction in RPS24 mRNA expression at 300 nM after 3 days by qRT-PCR analysis relative to control. On the technique in general: Real-time PCR tracks product formation cycle by cycle.

On to `COc1cc(CN2CCc3c(cc(Cn4ccn(C)c4=N)cc3-c3ccc(F)cc3C)C2=O)cc(OC)c1`, for which the outcome in assay [1], in assay [2] and in assay [6] was Active. Also, the inhibition result in assay [3] and in assay [5] was “Dose-dependent effect” each time. The result in assay [4] was inactive. For the same molecule, the fold change (FC) in assay [7] and in assay [8] was 2 each time.
